Test results from publication PMC2912403 (Journal of medicinal chemistry, 2010).
Like-named read-outs stand apart in the source and are kept apart here.

By UniProt entry, the sequences of proteins in these tests, tags left out.
UniProt P35372, whole entry: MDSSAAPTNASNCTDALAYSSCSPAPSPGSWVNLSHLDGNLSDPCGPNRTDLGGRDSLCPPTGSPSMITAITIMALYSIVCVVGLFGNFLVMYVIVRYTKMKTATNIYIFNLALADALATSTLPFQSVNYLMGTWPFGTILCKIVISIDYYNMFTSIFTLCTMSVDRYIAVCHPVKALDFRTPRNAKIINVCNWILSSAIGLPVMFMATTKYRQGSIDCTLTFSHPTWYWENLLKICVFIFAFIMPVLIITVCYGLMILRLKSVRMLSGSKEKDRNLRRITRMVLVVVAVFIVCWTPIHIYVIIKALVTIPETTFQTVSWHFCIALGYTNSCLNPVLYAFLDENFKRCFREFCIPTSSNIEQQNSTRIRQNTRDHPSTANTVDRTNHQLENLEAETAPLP

Tests used:
[1] = target: cloned human δ opioid receptor expressed in CHO cells (Homo sapiens, UniProt P41143); assay: [35S]GTPγS binding assay, inhibition of DPDPE-stimulated binding; format: biochemical
[2] = target: cloned human μ opioid receptor expressed in CHO cells (Homo sapiens, UniProt P35372); assay: [35S]GTPγS binding assay, inhibition of DAMGO-stimulated binding; format: biochemical

Row | SMILES | Kb ([1]; δ, DPDPE Ke) | Kb [1] | Kb [2]
1 | CC(C)[C@@H](CN1CC[C@@](C)(c2cccc(O)c2)[C@@H](C)C1)NC(=O)[C@H]1Cc2ccc(O)cc2CS1 [Compound 9a, 7-Hydroxyisothiochroman-3(+)-carboxylic acid-{1-[4-(3-hydroxyphenyl)-(3R,4R)-trans-dimethyl-piperidinylmethyl]-(2S)-methylpropyl}amide] | 395 ± 122 nM | – | –
2 | CC(C)[C@@H](CN1CC[C@@](C)(c2cccc(O)c2)[C@@H](C)C1)NC(=O)[C@H]1CCc2cc(O)ccc2C1 [Compound 7b, 6-Hydroxy-1,2,3,4-tetrahydro-naphthalene-2(-)-carboxylic acid-{1-[4-(3-hydroxyphenyl)-(3R,4R)-trans-dimethyl-piperidinylmethyl]-(2S)-methylpropyl}amide] | 205 ± 59 nM | – | –
3 | CC(C)[C@@H](CN1CC[C@@](C)(c2cccc(O)c2)[C@@H](C)C1)NC(=O)[C@@H]1Cc2ccc(O)cc2CO1 [Compound 8b, 7-Hydroxy-3,4-dihydro-1H-isochromene-3-carboxylic acid-{1-[4-(3-hydroxyphenyl)-(3R,4R)-trans-dimethyl-piperidinylmethyl]-(2S)-methylpropyl}amide] | 134 ± 26 nM | – | –
4 | CC(C)[C@@H](CN1CC[C@@](C)(c2cccc(O)c2)[C@@H](C)C1)NC(=O)[C@H]1Cc2ccc(O)cc2CO1 [Compound 8a] | 197 ± 64 nM | – | –
5 | CC(C)[C@@H](CN1CC[C@@](C)(c2cccc(O)c2)[C@@H](C)C1)NC(=O)c1ccc2cc(O)ccc2c1 [Compound 6] | – | 219 ± 41 nM | 2.53 ± 0.34 nM
6 | CC(C)[C@@H](CN1CC[C@@](C)(c2cccc(O)c2)[C@@H](C)C1)NC(=O)[C@H]1Cc2ccc(O)cc2C[S+]1[O-] (single isomer, unassigned) [Compound 10b] | 61 ± 11 nM | – | –
7 | CC(C)[C@@H](CN1CC[C@@](C)(c2cccc(O)c2)[C@@H](C)C1)NC(=O)[C@H]1Cc2ccc(O)cc2C[S+]1[O-] (single isomer, unassigned) [Compound 10a] | 208 ± 55 nM | – | –
8 | CC(C)[C@@H](CN1CC[C@@](C)(c2cccc(O)c2)[C@@H](C)C1)NC(=O)[C@@H]1Cc2ccc(O)cc2CS1 [Compound 9b, 7-Hydroxyisothiochroman-3(-)-carboxylic acid-{1-[4-(3-hydroxyphenyl)-(3R,4R)-trans-dimethyl-piperidinylmethyl]-(2S)-methylpropyl}amide] | – | 182 ± 48 nM | 13.4 ± 2.9 nM
9 | CC(C)[C@@H](CN1CC[C@@](C)(c2cccc(O)c2)[C@@H](C)C1)NC(=O)[C@@H]1CCc2cc(O)ccc2C1 [Compound 7a, 6-Hydroxy-1,2,3,4-tetrahydro-naphthalene-2(+)-carboxylic acid-{1-[4-(3-hydroxyphenyl)-(3R,4R)-trans-dimethyl-piperidinylmethyl]-(2S)-methylpropyl}amide] | 44.8 ± 7.7 nM | – | –
